Reference: patent publication US20190167694A1, “NEW THERAPEUTICS USES” (NOVARTIS AG, priority 2016, published 2019)

By UniProt entry, the sequences of proteins in these tests, tags left out.
UniProt Q08881, whole entry, species assumed: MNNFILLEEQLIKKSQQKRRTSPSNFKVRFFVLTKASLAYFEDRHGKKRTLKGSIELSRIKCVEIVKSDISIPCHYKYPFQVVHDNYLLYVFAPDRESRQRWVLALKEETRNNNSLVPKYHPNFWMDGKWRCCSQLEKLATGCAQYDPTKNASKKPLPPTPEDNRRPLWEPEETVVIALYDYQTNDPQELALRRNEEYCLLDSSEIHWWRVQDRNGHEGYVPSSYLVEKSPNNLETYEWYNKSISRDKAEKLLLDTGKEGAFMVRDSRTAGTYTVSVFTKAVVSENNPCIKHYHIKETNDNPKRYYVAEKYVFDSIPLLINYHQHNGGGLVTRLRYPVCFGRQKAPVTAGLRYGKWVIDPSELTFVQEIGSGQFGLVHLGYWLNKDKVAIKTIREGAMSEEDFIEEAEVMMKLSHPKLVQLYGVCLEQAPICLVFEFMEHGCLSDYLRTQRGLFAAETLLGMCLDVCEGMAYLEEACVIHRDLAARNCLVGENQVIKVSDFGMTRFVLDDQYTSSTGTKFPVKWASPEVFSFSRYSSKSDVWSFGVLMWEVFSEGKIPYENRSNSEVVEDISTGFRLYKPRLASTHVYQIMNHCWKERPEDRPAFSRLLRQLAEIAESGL

Target: ITK (Homo sapiens, UniProt Q08881)

Cc1cc(C(=O)Nc2nc3cccc(Cl)c3n2[C@@H]2CCCCN(C(=O)/C=C/CN(C)C)C2)ccn1 [COMPOUND A, (R,E)-N-(7-chloro-1-(1-(4-(dimethylamino)but-2-enoyl)azepan-3-yl)-1H-benzo[d]imidazol-2-yl)-2-methylisonicotinamide]
IC50, ITK biochemical: single digit nM potency
